From US20250197396A1, “COMPOUNDS FOR INHIBITING INOSITOL HEXAKISPHOSPHATE KINASE (IP6K) AND METHODS OF USE THEREOF” (Lieber Institute, Inc., priority 2020, published 2025)

Chains of the proteins cited; added tags and fusions are not shown. Lines headed by an entry give the natural chain unless they say otherwise; changes in a name come on top.
UniProt Q92551: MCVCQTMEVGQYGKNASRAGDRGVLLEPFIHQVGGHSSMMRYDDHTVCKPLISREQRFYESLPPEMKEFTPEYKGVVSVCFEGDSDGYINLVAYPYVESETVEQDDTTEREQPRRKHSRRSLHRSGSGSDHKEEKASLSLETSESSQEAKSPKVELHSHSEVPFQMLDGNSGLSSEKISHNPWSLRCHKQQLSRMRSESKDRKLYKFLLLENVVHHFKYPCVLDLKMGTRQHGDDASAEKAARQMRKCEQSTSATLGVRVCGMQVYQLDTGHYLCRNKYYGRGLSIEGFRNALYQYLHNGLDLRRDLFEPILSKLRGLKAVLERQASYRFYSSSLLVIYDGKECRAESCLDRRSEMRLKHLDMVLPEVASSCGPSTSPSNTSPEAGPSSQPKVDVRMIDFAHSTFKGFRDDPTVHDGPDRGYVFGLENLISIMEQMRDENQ

Target: IP6K1 (Homo sapiens (Human), UniProt Q92551)
Experiment: IP6K1 IC50 of compounds of Formula (IA) and Formula (IB)
Type: biochemical

## O=C(O)c1ccc2c(c1)[nH]c(=O)n2C1CCN(Cc2ccc(Cl)cc2Cl)CC1
read-out: IP6K1 IC50
  IC50: 3 to 30 µM

## O=C(O)c1ccc2[nH]c(=O)n(C3CCN(Cc4ccccc4Cl)CC3)c2c1
  IP6K1 IC50: + +

## O=C(O)c1ccc2[nH]c(=O)n(C3CCN(Cc4ccc(Cl)cc4Cl)CC3)c2c1
  IP6K1 IC50: + +
